Antibody variant affinities, Ab-91 heavy chain, assay 2

All variants were tested on one target, the spike HR2 peptide PDVDLGDISGINAS (SARS-CoV-2).

The variants keep the light chain, the linker and the frameworks of Ab-91 (scFv order VL, a 15-residue (Gly4Ser)3 linker, VH).
VL: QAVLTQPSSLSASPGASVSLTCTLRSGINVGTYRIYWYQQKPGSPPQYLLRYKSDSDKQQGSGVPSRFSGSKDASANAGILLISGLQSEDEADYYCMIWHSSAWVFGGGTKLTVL
VH: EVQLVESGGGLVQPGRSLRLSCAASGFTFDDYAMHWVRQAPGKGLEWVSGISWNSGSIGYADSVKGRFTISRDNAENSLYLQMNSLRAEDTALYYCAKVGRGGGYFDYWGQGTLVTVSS

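Phage display of a naive human antibody library on the peptide gave the parent. The library (AAYL51) carries one to three amino acid substitutions per variant, with no insertions or deletions. AlphaSeq pools MATa yeast showing the antibodies with MATalpha yeast showing the peptide. Pairs that bind mate more often; barcode pairs of the diploids are counted by sequencing. Read counts were normalised to the haploid input and turned into Kd by a linear fit to BCL2-family pairs of known affinity, for each replicate. The assay was run in three technical replicates.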

The whole VH of each variant is written out. The read-out is the apparent dissociation constant on a log10 scale (nM): the lower, the stronger. The mean shown is taken over the replicates in which the pair was detected. Where no diploid with the target was found in that replicate, the entry reads "ND": below detection, most likely a poor binder, though not proof of it. Parent in this assay: reference entry 1.86, copy in this library 0.88. Empty control strains, which show no peptide, gave a signal in 21% of pairings with library AAYL51; the median was 4.54 and 95% of these signals were weaker than 3.26. No background was subtracted. The control count says in how many pairings with the empty strains this scFv gave a signal, with their mean in brackets.

| # | VH | log10 Kd (nM) by replicate | mean, log10 nM | signal with controls |
|---|---|---|---|---|
| 1 | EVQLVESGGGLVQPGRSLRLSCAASHFTFDDYAMSWVRQAPGKGLEWVSGISWNSQSIGYADSVKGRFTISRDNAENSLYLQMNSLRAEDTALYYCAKVGRGGGYFDYWGQGTLVTVSS | 4.57 5.47 ND | 5.02 | 5 of 9 (4.79) |
| 2 | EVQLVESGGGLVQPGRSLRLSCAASGFTFGDYAMHWVRQAPGKGLEWVSGISWNSYSIGYADSVKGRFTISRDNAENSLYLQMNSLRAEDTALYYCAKVGYGGGYFDYWGQGTLVTVSS | 2.07 1.91 1.51 | 1.83 | 0 of 9 |
| 3 | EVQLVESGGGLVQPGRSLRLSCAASGFTFDDYKMHWVRQAPGKGLEWVSLISWNSNSIGYADSVKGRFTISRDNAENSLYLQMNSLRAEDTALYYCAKVGRGGGYFDYWGQGTLVTVSS | ND ND ND | ND | 0 of 9 |
| 4 | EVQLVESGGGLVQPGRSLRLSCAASGFTFDDYAMHWVRQAPGKGLEWVSGTCWNSGSIGYAESVKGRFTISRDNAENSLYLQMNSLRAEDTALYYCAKVGRGGGYFDYWGQGTLVTVSS | 4.77 ND 4.44 | 4.61 | 3 of 9 (4.61) |
| 5 | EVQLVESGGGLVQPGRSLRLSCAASGFTFDDYAMHWVRQAPGKGLEWVSKISWNSGSIGYATSVKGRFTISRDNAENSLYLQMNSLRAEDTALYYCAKVGRGGGYFFYWGQGTLVTVSS | ND 4.58 5.13 | 4.85 | 4 of 9 (4.79) |
| 6 | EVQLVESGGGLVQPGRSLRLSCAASGFTFDDYAPHWVRQAPGKGLEWVSGISPNSGSIGYADSVKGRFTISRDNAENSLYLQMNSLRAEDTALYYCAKTGRGGGYFDYWGQGTLVTVSS | ND ND ND | ND | 1 of 9 (3.52) |
| 7 | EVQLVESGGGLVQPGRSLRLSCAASGFTFDDYAMHWVRQAPGKGLEWVSGIAWNSMSIGYEDSVKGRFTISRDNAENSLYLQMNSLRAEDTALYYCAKVGRGGGYFDYWGQGTLVTVSS | 1.90 2.12 1.57 | 1.86 | 4 of 9 (4.37) |
| 8 | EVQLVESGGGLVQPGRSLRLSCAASGFTFDDYAMDWVRQAPGKGLEWVSGISWNSGSIDYADSVKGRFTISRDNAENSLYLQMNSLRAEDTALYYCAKVGRGGGYFDYWGQGTLVTVSS | ND ND 2.28 | 2.28 | 3 of 9 (3.61) |
| 9 | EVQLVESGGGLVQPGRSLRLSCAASGFTFDDYAMHWVRQAPGKGLEWVSNIMWNSGSIGYADSVEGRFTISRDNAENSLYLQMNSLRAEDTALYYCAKVGRGGGYFDYWGQGTLVTVSS | 4.89 4.83 ND | 4.86 | 6 of 9 (5.30) |
| 10 | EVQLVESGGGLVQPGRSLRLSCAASGFTFDDGAHHWVRQAPGKGLEWVSGISWNSGSRGYADSVKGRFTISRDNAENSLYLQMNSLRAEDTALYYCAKVGRGGGYFDYWGQGTLVTVSS | 4.85 ND ND | 4.85 | 3 of 9 (4.20) |
| 11 | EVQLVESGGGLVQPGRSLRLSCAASGFTFDDYAMHWVRQAPGKGLEWVSGISWNSSSIGYADSVKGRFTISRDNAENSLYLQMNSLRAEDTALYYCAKVGWGGGYFDYWGQGTLVTVSS | ND 3.53 ND | 3.53 | 3 of 9 (4.03) |
| 12 | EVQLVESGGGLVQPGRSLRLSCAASGFTFDDYAIHWVRQAPGKGLEWVSGIEWNSGSIGWADSVKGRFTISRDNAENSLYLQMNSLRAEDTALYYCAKVGRGGGYFDYWGQGTLVTVSS | ND ND ND | ND | 1 of 9 (4.19) |
| 13 | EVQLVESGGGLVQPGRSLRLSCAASGFTFDDYAMHWVRQAPGKGLEWVSGISWNSDSIGYEDSVKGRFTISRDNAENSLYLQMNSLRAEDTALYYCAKVGRGGGYFLYWGQGTLVTVSS | ND ND ND | ND | 2 of 9 (4.78) |
| 14 | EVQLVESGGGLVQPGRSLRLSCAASGFTFDDYAMHWVRQAPGKGLEWVSGIRWNSGSVGWADSVKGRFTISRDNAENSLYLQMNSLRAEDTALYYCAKVGRGGGYFDYWGQGTLVTVSS | ND ND ND | ND | 2 of 9 (4.31) |
| 15 | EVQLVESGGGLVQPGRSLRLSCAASGFTFDDYAMHWVRQAPGKGLEWVSGGSWNSGSIGYADSVQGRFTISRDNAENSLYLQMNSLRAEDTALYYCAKVGRSGGYFDYWGQGTLVTVSS | ND 5.84 ND | 5.84 | 0 of 9 |
| 16 | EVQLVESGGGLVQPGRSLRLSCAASNFTFDDYAMHWVRQAPGKGLEWVSGISWNSGSIGYADFVKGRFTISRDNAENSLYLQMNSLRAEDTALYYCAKVGRGFGYFDYWGQGTLVTVSS | 4.74 ND ND | 4.74 | 1 of 9 (4.09) |
| 17 | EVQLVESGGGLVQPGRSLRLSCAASGFTFHDYAMHWVRQAPGKGLEWVSGISWNSGSIGYADSVKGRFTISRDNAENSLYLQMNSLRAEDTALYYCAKVGRGGGYADYWGQGTLVTVSS | ND ND ND | ND | 1 of 9 (3.43) |
| 18 | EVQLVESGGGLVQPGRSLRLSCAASGFTFDDEAMHWVRQAPGKGLEWVSGISWYSGSIGYADSVKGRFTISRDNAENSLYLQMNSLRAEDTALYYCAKVGRGGGRFDYWGQGTLVTVSS | ND ND 4.28 | 4.28 | 3 of 9 (4.44) |
| 19 | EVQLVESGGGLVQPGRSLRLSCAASGFTFDDIAMHWVRQAPGKGLEWVSGISWNSGSTGYADSVKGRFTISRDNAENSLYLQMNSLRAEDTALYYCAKVGRGGGYFDYWGQGTLVTVSS | 4.28 3.20 ND | 3.74 | 0 of 9 |
| 20 | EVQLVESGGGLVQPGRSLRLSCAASGFTFDDYAMHWVRQAPGKGLEWVSGISWNSGSIPDADSVKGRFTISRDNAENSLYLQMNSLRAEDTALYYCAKVGRGGGYFDYWGQGTLVTVSS | 4.14 ND ND | 4.14 | 0 of 9 |
| 21 | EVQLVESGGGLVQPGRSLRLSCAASGFTFDDYAMCWVRQAPGKGLEWVSGISWNSGSIGYADSVKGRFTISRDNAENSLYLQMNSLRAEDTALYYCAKVPRGGGYFDYWGQGTLVTVSS | 5.10 3.94 ND | 4.52 | 1 of 9 (3.38) |

Top 2 of the variants detected in all replicates, tightest first:

VH	log10 Kd (nM) by replicate	mean, log10 nM	signal with controls
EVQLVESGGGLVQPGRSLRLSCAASGFTFGDYAMHWVRQAPGKGLEWVSGISWNSYSIGYADSVKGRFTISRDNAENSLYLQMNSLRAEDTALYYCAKVGYGGGYFDYWGQGTLVTVSS	2.07 1.91 1.51	1.83	0 of 9
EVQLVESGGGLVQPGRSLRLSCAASGFTFDDYAMHWVRQAPGKGLEWVSGIAWNSMSIGYEDSVKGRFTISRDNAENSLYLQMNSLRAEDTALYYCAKVGRGGGYFDYWGQGTLVTVSS	1.90 2.12 1.57	1.86	4 of 9 (4.37)

From the AlphaSeq antibody data of Engelhart et al. 2022 (doi:10.1038/s41597-022-01779-4), copy in the FLAb collection.